Experimental data from EP1310247A1 (priority 1997, dated 1999).

Test system: Sprague Dawley rats
Assay: Nasal airway pressure / resistance in anesthetized rats, normal and histamine-challenged
Type: in vivo
Conditions: non-histamine-challenged rats; 100% dose

SMILES: CN[C@H](C)[C@@H](O)c1ccccc1 [(+)-ephedrine]
- reduction in airway passage resistance compared with (-)-ephedrine: significantly greater reduction in airway passage resistance
